Curated experimental data: vapor pressure values

Data: OPERA 2.9 data sets, kmansouri/OPERA on GitHub.

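The numbers are reported measurements, compiled and curated for the OPERA QSAR suite. One number stands for a compound and property, with no spread given. Method, purity and exact conditions of the single measurements are not given. Where a salt, mixture or single isomer is drawn, the source does not say that exactly this form was tested. Some entries may be limits or estimates that an upstream database listed as plain numbers.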

Vapor pressures (log10 mmHg) refer to near room temperature, 15 to 30 °C; higher is more volatile.
"n/a" marks a cell with nothing listed here.
"via" names the databases from which the curators took the value.

structure (SMILES) | name | log VP (log10 mmHg) | via
OCCN(CCO)C1CCCCC1 | Ethanol, 2,2'-(cyclohexylimino)bis- | -5.104 | eChemPortal
CN(C)C(=O)c1cc2cnc(Cl)nc2n1C1CCCC1 | n/a | -6.663 | eChemPortal
CCCCNC(=O)OCC#CI | 3-Iodo-2-propynyl-N-butylcarbamate | -4.754 | eChemPortal
COc1ccc(C(C)(C)C)cc1CN[C@H]1C2CCN(CC2)[C@H]1C(c1ccccc1)c1ccccc1 | Maropitant | -9.02 | eChemPortal
O=C(CCl)c1ccc(F)cc1 | 2-Chloro-4'-fluoroacetophenone | -1.846 | eChemPortal
C=C(C)C(=O)OCC(CC)CCCC (configuration not stated) | 2-Ethylhexyl 2-methyl-2-propenoate | -1.312 | eChemPortal
NC(=O)CF | 2-Fluoroacetamide | -0.004 | OCHEM
CC(C)(c1ccc(OCC2CO2)cc1)c1ccc(OCC2CO2)cc1 (configuration not stated) | Bisphenol A diglycidyl ether | -9.294 | eChemPortal
CC1CC(C)(C)CC(OOC(C)(C)C)(OOC(C)(C)C)C1 (configuration not stated) | 1,1-Bis(tert-butylperoxy)-3,3,5-trimethylcyclohexane | -4.171 | eChemPortal
CC(C)(Cl)CCl | 1,2-Dichloro-2-methylpropane | 1.449 | OCHEM
CC(C)=C1OC(=O)N(c2cc(OC3CCCC3)c(Cl)cc2F)C1=O | Pentoxazone | -7.084 | OCHEM
FC(F)C(F)(F)OCC(F)(F)C(F)(F)F | Perfluoroethyl 2H-perfluoroethyl ether | 2.074 | ICF
NP(N)(=O)Nc1ccccc1[N+](=O)[O-] | (2-Nitrophenyl)-phosphoric triamide | -7.316 | eChemPortal
Clc1cccc(-c2ccccc2Cl)c1 | 2,3'-Dichlorobiphenyl | -2.975 | OCHEM
CCc1nn(C)c(C(=O)NCc2ccc(C(C)(C)C)cc2)c1Cl | Tebufenpyrad | -7.529 | OCHEM, PubChem
C[C@]12CC[C@H]3[C@@H](C=CC4=CC(=O)CC[C@@H]43)[C@@H]1CC[C@@H]2O (stereo in doubt) | 17beta-Hydroxyestra-4,6-diene-3-one | -9.73 | eChemPortal
Clc1ccc2c(c1)Oc1ccc(Cl)cc1O2 | 2,7-Dichlorodibenzo-p-dioxin | -6.046 | OCHEM, PubChem
CC(C)C(C)(N)C#N (configuration not stated) | 2-Amino-2,3-dimethylbutanenitrile | -0.237 | eChemPortal
CN(C)C(=S)[S-].CN(C)C(=S)[S-].[Zn+2] | Ziram | -6.87 | OCHEM, eChemPortal
Clc1ccc(-c2ccccc2Cl)c(Cl)c1 | 2,2',4-Trichlorobiphenyl | -3.225 | OCHEM
CCOP(Oc1c(C)cc(C(C)(C)C)cc1C(C)(C)C)Oc1c(C)cc(C(C)(C)C)cc1C(C)(C)C | Bis(2,4-di-tert-butyl-6-methylphenyl)ethyl phosphite | -7.347 | eChemPortal
O=c1oc2ccccc2c(O)c1C(CC(O)c1ccc(-c2ccc(Br)cc2)cc1)c1ccccc1 (configuration not stated) | Bromadiolone | -9.796 | OCHEM
CCOC(=O)CSP(=S)(OCC)OCC | Acethion | -3.272 | OCHEM
O=C([O-])C(F)(F)OC1(F)OC(F)(F)OC1(F)OC(F)(F)F.[NH4+] (configuration not stated) | Ammonium perfluoro[(5-methoxy-1,3-dioxolan-4-yl)oxy]acetate | -6.488 | eChemPortal
Cc1cc(C(C)(C)c2cc(C)c(O)c(C)c2)cc(C)c1O | 4,4'-Propane-2,2-diylbis(2,6-dimethylphenol) | -7.483 | eChemPortal
CC[C@H]1CCC[C@H](O[C@H]2CC[C@H](N(C)C)[C@@H](C)O2)[C@@H](C)C(=O)C2=C[C@@H]3[C@@H](C=C[C@@H]4C[C@@H](O[C@@H]5O[C@@H](C)[C@H](OC)[C@@H](OC)[C@H]5OC)C[C@@H]34)[C@@H]2CC(=O)O1 | Spinosyn A | -9.648 | PubChem
CC(C)CCON=O | 3-Methylbutyl nitrite | 1.419 | PubChem
Clc1ccc(Cl)c(-c2c(Cl)c(Cl)c(Cl)c(Cl)c2Cl)c1 | 2,2',3,4,5,5',6-Heptachlorobiphenyl | -5.265 | OCHEM
CC(C=O)Cc1ccc2c(c1)OCO2 (configuration not stated) | 3-(3,4-Methylenedioxyphenyl)-2-methylpropanal | -3.16 | eChemPortal
CCOP(=S)(OCC)SCC(=O)NC(C)C | Prothoate | -4.011 | OCHEM
CC(=O)C1(Cl)CC1 | Ethanone, 1-(1-chlorocyclopropyl)- | 1.195 | eChemPortal
CCC(C)(NC(=O)c1cc(Cl)c(C)c(Cl)c1)C(=O)CCl (configuration not stated) | Zoxamide | -7.008 | OCHEM, PubChem
FC(F)C(F)(F)COC(F)(F)C(F)F | (2H-Perfluoroethyl)(1H,1H,3H-perfluoropropyl)ether | 1.616 | ICF
CC(C)CON=O | Isobutyl nitrite | 1 | PubChem
O=C([O-])c1cc(Oc2ccc(C(F)(F)F)cc2Cl)ccc1[N+](=O)[O-].[Na+] | Acifluorfen sodium | -7.063 | OCHEM, OFMPub
CSC1=N[C@@](C)(c2ccccc2)C(=O)N1Nc1ccccc1 | (S)-1-Anilino-4-methyl-2-methylthio-4-phenylimidazolin-5-one | -8.593 | OCHEM
CO/C=C(/C(=O)OC)c1ccccc1COc1cc(C(F)(F)F)nc(OC(C)C)n1 | Fluacrypyrim | -7.347 | OCHEM
FC(F)COC(F)(F)C(F)F | 2,2-Difluoroethyl 1,1,2,2-tetrafluoroethyl ether | 1.888 | ICF

Excerpt, the final 4 entries:

structure (SMILES) | name | log VP (log10 mmHg) | via
O=C([O-])c1cc(Oc2ccc(C(F)(F)F)cc2Cl)ccc1[N+](=O)[O-].[Na+] | Acifluorfen sodium | -7.063 | OCHEM, OFMPub
CSC1=N[C@@](C)(c2ccccc2)C(=O)N1Nc1ccccc1 | (S)-1-Anilino-4-methyl-2-methylthio-4-phenylimidazolin-5-one | -8.593 | OCHEM
CO/C=C(/C(=O)OC)c1ccccc1COc1cc(C(F)(F)F)nc(OC(C)C)n1 | Fluacrypyrim | -7.347 | OCHEM
FC(F)COC(F)(F)C(F)F | 2,2-Difluoroethyl 1,1,2,2-tetrafluoroethyl ether | 1.888 | ICF